Yeast UUG start-1: alters start codon recognition fidelity in yeast | S. cerevisiae UUG-firefly luciferase reporter, luminescence/redox ratio | activity score, % at 18.7 µM | 350,000 compounds, 0.13% hits | AID 602363;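 active = replicate mean at a twofold rise or more, about +100% in these data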;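 note: firefly luciferase made from a UUG start codon reports start codon fidelity; reporter light over untreated wells divided by growth signal over untreated wells; some hits fall short of that in this replicate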
CAL PDZ FP-1: inhibitors of human CAL PDZ peptide binding. purified CAL PDZ, TMR-peptide fluorescence polarization, 1 h. actives 0.92% (n = 300,000). inhibition, % at 24.9 µM;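 active = mean inhibition of at least 30% with at least half of replicates also reaching 30%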
CAL PDZ FP-2: human CAL PDZ-peptide interaction inhibition. inhibition, % at 20 µM. purified CAL PDZ, TMR-peptide fluorescence polarization, 1 h. actives 0.02% (n = 330,000). AID 504414;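 active = highest replicate inhibition of at least 40%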
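material = purified tagged CAL PDZ domain construct (CerCALP) | compound dosing = 20 µM, one dose | times = 1 h at RT | measured by = fluorescence polarization from S- and P-plane intensities, G-factor corrected | read-out = inhibition from polarization loss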
PglD DTNB: inhibitors of Campylobacter jejuni PglD acetyltransferase; purified PglD enzyme, DTNB colorimetric CoA detection; inhibition, % at 12.5 µM; actives 0.098% (n = 360,000); AID 602405; in the data active = inhibition above about 16%, passing the limit was not always enough
ARNT-TACC3 inh: disrupts binding between human ARNT and TACC3 | Q9Y6A5 | AlphaScreen His-ARNT PAS-B/GST-TACC3 binding, luminescence; TACC3 fragment carries E629A point mutation | inhibition, % at 9.99 µM | actives 0.66% (n = 390,000);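 active = mean inhibition of replicates at least 50% and at least half of replicates each reaching 50%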
Vif inh: HIV Vif inhibition. HEK293T cells, Vif self-association by quenched fluorescence, imaging, 24 h. inhibition, % at 7.49 µM. actives 0.35% (n = 340,000). AID 602346; in the data active = inhibition above about 50%, passing the limit was not always enough
Yeast UUG start-2: alters UUG start codon use in yeast; shares compounds with Yeast UUG start-1; activation, % at 38 µM; 540 tested, under 10 active; AID 652061; S. cerevisiae UUG-start firefly luciferase, luminescence, 4 h; 100% means double the DMSO signal;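 active = signal increase whose fitted curve reaches an absolute level of 40 at a concentration under 10 µM; inactive = activity opposite to the expected increase, or the rest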
A number is an active result. Sampled rows, rich in hits. Any-hit rate of the full collection: about 1.6%.

How did Cc1cc(C(=O)CSc2nnc(-c3ccccc3)n2-c2ccccc2)c(C)n1-c1ncn[nH]1 do in these assays?
Yeast UUG start-1: 653.4; CAL PDZ FP-1: inactive; CAL PDZ FP-2: inactive; PglD DTNB: inactive; ARNT-TACC3 inh: inactive; Vif inh: inactive; Yeast UUG start-2: inactive

How did COCC(C)n1c(SCC(=O)c2cc(C)n(C)c2C)nc2ccccc2c1=O (stereo not drawn) do in these assays?
Yeast UUG start-1: inactive; CAL PDZ FP-1: inactive; CAL PDZ FP-2: inactive; PglD DTNB: inactive; ARNT-TACC3 inh: inactive; Vif inh: inactive; Yeast UUG start-2: inactive

Results for COc1ccc(CN(C)C[C@H]2Oc3ccc(NC(=O)Nc4ccc5c(c4)OCO5)cc3C(=O)N([C@H](C)CO)C[C@H]2C)cc1 ?
Yeast UUG start-1: inactive; PglD DTNB: inactive; ARNT-TACC3 inh: inactive

How did CC(=O)Nc1ccc(S(=O)(=O)NCCC(=O)Nc2ccc(C)c(F)c2)cc1 do in these assays?
Yeast UUG start-1: 200.2; CAL PDZ FP-1: inactive; CAL PDZ FP-2: inactive; PglD DTNB: inactive; ARNT-TACC3 inh: inactive; Vif inh: inactive; Yeast UUG start-2: inactive

What do the screens show for `COc1ccc(S(=O)(=O)Nc2ccc3c(c2)C(=O)N([C@H](C)CO)C[C@H](C)[C@H](CN(C)C(=O)Nc2ccccc2)OCCCC[C@@H](C)O3)cc1`?
Yeast UUG start-1: inactive; PglD DTNB: inactive; ARNT-TACC3 inh: inactive

How did CN(C(=O)c1ccc(OC2CCN(CCc3ccccc3)CC2)cc1)C1CCOC1 (stereo not drawn) do in these assays?
Yeast UUG start-1: inactive; CAL PDZ FP-1: inactive; CAL PDZ FP-2: inactive; PglD DTNB: inactive; ARNT-TACC3 inh: inactive; Vif inh: inactive

How did O=C(NC1CCOC1)c1ccc(OC2CCN(CCc3ccccc3)CC2)cc1 (stereo not drawn) do in these assays?
Yeast UUG start-1: 503.2; CAL PDZ FP-1: inactive; CAL PDZ FP-2: inactive; PglD DTNB: inactive; ARNT-TACC3 inh: inactive; Vif inh: inactive; Yeast UUG start-2: inactive

Results for CC(C)NC(=O)N(C)C[C@@H]1Oc2ccc(NC(=O)CCCCCC(=O)Nc3ccccc3N)cc2C(=O)N([C@@H](C)CO)C[C@@H]1C ?
Yeast UUG start-1: inactive; PglD DTNB: inactive; ARNT-TACC3 inh: inactive

How did C/C(=N/NC(=O)CNC(=O)c1ccco1)c1ccco1 do in these assays?
Yeast UUG start-1: inactive; CAL PDZ FP-1: inactive; CAL PDZ FP-2: inactive; PglD DTNB: inactive; ARNT-TACC3 inh: inactive; Vif inh: inactive

What do the screens show for `C/C(=N/NC(=O)CNC(=O)c1ccncc1)c1ccco1`?
Yeast UUG start-1: 180.4; CAL PDZ FP-2: inactive; PglD DTNB: inactive; ARNT-TACC3 inh: inactive; Vif inh: inactive; Yeast UUG start-2: inactive

How did Cc1cc(Nc2ccc(Cl)cc2)nc(NCc2ccccc2)n1 do in these assays?
Yeast UUG start-1: active; CAL PDZ FP-1: inactive; CAL PDZ FP-2: inactive; PglD DTNB: inactive; ARNT-TACC3 inh: inactive; Vif inh: inactive; Yeast UUG start-2: inactive

How did CCOc1ccc(CCNS(=O)(=O)c2c(C)cc(C)cc2C)cc1OCC do in these assays?
Yeast UUG start-2: inactive

Results for CCCCC12CN3CC(C)(CN(C1)C3c1ccc([N+](=O)[O-])o1)C2=O (stereo not drawn) ?
Yeast UUG start-1: 145.7; CAL PDZ FP-1: inactive; CAL PDZ FP-2: inactive; PglD DTNB: inactive; ARNT-TACC3 inh: inactive; Vif inh: inactive; Yeast UUG start-2: inactive

What do the screens show for `CCCC12CN3CC(C)(CN(C1)C3c1ccc([N+](=O)[O-])o1)C2=O` (stereo not drawn)?
Yeast UUG start-1: inactive; CAL PDZ FP-1: inactive; CAL PDZ FP-2: inactive; PglD DTNB: inactive; ARNT-TACC3 inh: inactive; Vif inh: inactive

What do the screens show for `C=CCO/N=C(/C)c1c(O)c(CC)c(-c2ccccc2)n(-c2ccccc2)c1=O`?
Yeast UUG start-1: 280.4; CAL PDZ FP-1: inactive; CAL PDZ FP-2: inactive; PglD DTNB: inactive; ARNT-TACC3 inh: inactive; Yeast UUG start-2: inactive

What do the screens show for `COc1ccc(NC(=O)N2C[C@H](O)COC[C@@H]3O[C@@H](CC(=O)N4CCN(C)CC4)CC[C@H]32)cc1`?
Yeast UUG start-1: inactive; PglD DTNB: inactive; ARNT-TACC3 inh: inactive

What do the screens show for `C[C@@H]1CCCCO[C@H](CN(C)Cc2ccc(C(=O)O)cc2)[C@@H](C)CN([C@H](C)CO)C(=O)c2cc(NS(=O)(=O)c3ccc(F)cc3)ccc2O1`?
Yeast UUG start-1: inactive; PglD DTNB: inactive; ARNT-TACC3 inh: inactive

Results for C[C@@H]1CCCCO[C@@H](CN(C)Cc2ccc(C(=O)O)cc2)[C@H](C)CN([C@@H](C)CO)C(=O)c2cc(NS(=O)(=O)c3ccc(F)cc3)ccc2O1 ?
Yeast UUG start-1: 111.8; PglD DTNB: inactive; ARNT-TACC3 inh: inactive; Yeast UUG start-2: inactive

How did COC(C#CCCN(C)C)(c1ccccc1)c1ccccc1 do in these assays?
CAL PDZ FP-1: inactive; CAL PDZ FP-2: inactive; ARNT-TACC3 inh: inactive; Vif inh: inactive; Yeast UUG start-2: inactive

Results for O=C(NCC[C@@H]1CC[C@@H](NC(=O)C2CCC2)[C@@H](CO)O1)c1cnccn1 ?
Yeast UUG start-1: inactive; PglD DTNB: inactive; ARNT-TACC3 inh: inactive

Results for O=c1cc(CO)occ1OCc1ccccc1 ?
Yeast UUG start-1: 483.8; CAL PDZ FP-1: inactive; CAL PDZ FP-2: inactive; PglD DTNB: inactive; ARNT-TACC3 inh: inactive; Vif inh: inactive; Yeast UUG start-2: inactive

What do the screens show for `O=c1cc(CO)occ1OCc1c(F)cccc1Cl`?
Yeast UUG start-1: inactive; CAL PDZ FP-1: inactive; CAL PDZ FP-2: inactive; PglD DTNB: inactive; ARNT-TACC3 inh: inactive; Vif inh: inactive

What do the screens show for `COCCNC(=O)C[C@H]1C[C@@H]2c3cc(NC(=O)Nc4ccccc4F)ccc3O[C@@H]2[C@H](CO)O1`?
Yeast UUG start-1: inactive; PglD DTNB: inactive; ARNT-TACC3 inh: inactive

How did O=c1[nH]c(/C=C\c2ccc(O)c(Cl)c2)nc(O)c1[N+](=O)[O-] do in these assays?
Yeast UUG start-1: 166.7; CAL PDZ FP-1: inactive; CAL PDZ FP-2: inactive; PglD DTNB: inactive; ARNT-TACC3 inh: inactive; Vif inh: inactive; Yeast UUG start-2: inactive

Results for Cc1onc(-c2ccc(Cl)cc2)c1-c1ccnn1S(=O)(=O)c1cccc(C(F)(F)F)c1 ?
Yeast UUG start-1: 186.8; CAL PDZ FP-2: inactive; PglD DTNB: inactive; ARNT-TACC3 inh: inactive; Vif inh: inactive; Yeast UUG start-2: inactive

Results for COc1ccccc1C(=O)Nc1ccc2c(c1)OC[C@@H](C)N(C)C[C@H](C)[C@H](OC)CN(C)C2=O ?
Yeast UUG start-1: inactive; PglD DTNB: inactive; ARNT-TACC3 inh: inactive

Results for C[C@@H]1CN([C@@H](C)CO)C(=O)c2cc(-c3ccncc3)cnc2O[C@@H]1CN(C)S(=O)(=O)c1ccc(F)cc1 ?
PglD DTNB: inactive; ARNT-TACC3 inh: inactive
